The target of assay [1] is T1, Aromatase (Homo sapiens, UniProt P11511). Kind of assay: Inhibition of human aromatase extracted from placental microsomes using [1beta-3H]androstenedione as substrate after 20 mins.
In assay [2] the target is T1, Aromatase.

Sequences of proteins named here, by UniProt entry; tags and fusion partners are left off. A change or cut given only in a name is not applied to a line headed by its entry.
UniProt P11511: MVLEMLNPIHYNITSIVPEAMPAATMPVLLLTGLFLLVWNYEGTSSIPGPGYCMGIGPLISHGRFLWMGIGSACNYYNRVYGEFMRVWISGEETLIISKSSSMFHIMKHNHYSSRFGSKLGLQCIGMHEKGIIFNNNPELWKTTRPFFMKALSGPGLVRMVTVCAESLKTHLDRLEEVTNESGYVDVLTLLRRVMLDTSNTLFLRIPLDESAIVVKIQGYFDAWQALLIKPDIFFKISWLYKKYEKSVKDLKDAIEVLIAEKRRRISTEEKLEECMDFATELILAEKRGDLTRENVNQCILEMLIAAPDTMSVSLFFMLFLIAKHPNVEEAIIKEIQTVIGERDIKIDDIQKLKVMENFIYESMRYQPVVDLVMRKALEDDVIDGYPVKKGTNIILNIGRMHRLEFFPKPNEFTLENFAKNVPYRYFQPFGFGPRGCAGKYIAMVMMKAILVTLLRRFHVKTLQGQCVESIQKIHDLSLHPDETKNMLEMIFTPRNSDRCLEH

These results are taken from ChEMBL document CHEMBL3751755, “Developing steroidal aromatase inhibitors-an effective armament to win the battle against breast cancer” (Eur J Med Chem, 2015).

pIC50, pKi: −log10 of the molar value.

With `C[C@]12CCCC=C1CC[C@@H]1[C@@H]2CC[C@]2(C)C(=O)CC[C@@H]12`, at Aromatase [1], the pIC50 – broadly, the negative decadic logarithm of the IC50, by convention in mol/L – is 6.89.

Take `C[C@]12CCCC=C1[C@@H](O)C[C@@H]1[C@@H]2CC[C@]2(C)C(=O)CC[C@@H]12`: on Aromatase [2], the pKi (usually the negative decadic logarithm of the Ki, by convention in mol/L) was 7.92.
